The source of these data is PubChem BioAssay AID1777 (Sanford-Burnham Center for Chemical Genomics, 2009).

Amino acid sequences for entries named in this document (tags omitted). A change or cut given only in a name is not applied to a line headed by its entry.
UniProt P41145: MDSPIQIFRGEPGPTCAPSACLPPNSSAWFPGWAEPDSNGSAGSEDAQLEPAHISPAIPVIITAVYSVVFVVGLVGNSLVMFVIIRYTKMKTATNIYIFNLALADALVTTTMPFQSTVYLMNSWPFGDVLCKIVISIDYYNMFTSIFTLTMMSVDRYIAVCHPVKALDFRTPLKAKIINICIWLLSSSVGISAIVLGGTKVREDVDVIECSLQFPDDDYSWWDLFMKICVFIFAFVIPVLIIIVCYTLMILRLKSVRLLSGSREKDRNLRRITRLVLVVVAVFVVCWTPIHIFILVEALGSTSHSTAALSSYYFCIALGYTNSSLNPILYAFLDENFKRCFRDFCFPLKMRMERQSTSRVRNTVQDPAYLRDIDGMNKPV

This is one part of the list. Entries with a potency or affinity are not part of this list. Calls of active or inactive are those of the source. No stated cut-off is given here; in the data, active means activation above about 50% (passing the limit was not always enough); inactive means the rest.

For the assay, the target named is Kappa-type opioid receptor (Homo sapiens) (UniProt P41145). In words: kappa opioid receptor activators – cell-based, luminescence, uHTS, primary screen (AID 1777). Conditions: KOR beta-arrestin recruitment, at 10 µM, active compounds read high.
On to `O=C1NCN(c2ccccc2)C12CCNCC2`, for which the activation is inactive: -10%.
As to `Cn1c(=O)c2c(ncn2CCNC2=NCCCCC2)n(C)c1=O`, the activation was inactive: -4.1%.
Consider `C[C@@H]1C=CCP(=O)(Oc2ccccc2)O1` (some centres undefined), for which the activation was inactive: -2.3%.
On to `O=C(CCNC(=O)N1CCn2c1nc1ccccc12)NCc1ccccc1Cl`, for which the activation was inactive: 4.8%.
Consider `CN(C)C(=O)CSc1nc2ccccc2n1CC(=O)N1CCN(c2ccccc2)CC1`, for which the activation is inactive: -3.6%.
Consider `CN(C)CCn1c(N)nc2ccccc21`, for which the activation was inactive: -2%.
Next, `Cc1ccc2c(c1)C1CN(C)CCC1N2Sc1ccccc1[N+](=O)[O-]` (centres undefined): inactive: -2%; `CCC(=O)Nc1nc2ccccc2n1CCN(C)C`: inactive: -6.1%; `C[C@H]1OP(=O)(Oc2ccccc2)C[C@@H]2O[C@@H]21` (some centres undefined): inactive: -2.4%.
Next, `Cc1ccc2c(c1)C1CN(C)CCC1N2C(=O)Nc1cccc(Cl)c1` (centres undefined): inactive: -2%; `CCOc1ccc(S(=O)(=O)N(C)c2ccc(OCC(=O)N3c4ccc(C)cc4C4CN(C)CCC43)cc2)cc1` (centres undefined): inactive: -0.4%.
Turning to `CC(C)(C)NC(=O)Cn1c(SCC(=O)Nc2nccs2)nc2ccccc21`, the activation was inactive: -6.4%.
Take `O=C(CCCCCNC(=O)N1CCn2c1nc1ccccc12)N[C@H](C(=O)O)c1ccccc1`: the activation is inactive: -2.5%.
The same measure for `Cc1ccc2c(c1)C1CN(C)CCC1N2C(=O)COc1ccc(N(C)S(=O)(=O)c2cccs2)cc1` (centres undefined): inactive: 1.8%; for `COC(=O)c1ccccc1NC(=O)Cn1c(-c2nonc2N)nc2ccccc21`: inactive: 2.3%.
The same measure for `Cn1c(=O)c2c(ncn2CC(=O)N/N=C/C(Cl)=C/c2ccccc2)n(C)c1=O`: inactive: -0.8%; for `O=C(Cn1cnc2ccccc21)N/N=C/C(Br)=C/c1ccccc1`: inactive: 7.1%.
Consider `CC(NC(=O)CCCCCNC(=O)N1CCn2c1nc1ccccc12)c1ccccc1` (centres undefined), for which the activation is inactive: 5.6%.
The same measure for `O=C(Cn1c(SCC(=O)N2CCCc3ccccc32)nc2ccccc21)N1CCCC1`: inactive: -5.4%; for `CC(=O)c1ccc(N2CC2c2ccncc2)cc1` (centres undefined): inactive: -4.4%.
Regarding `Cc1cc(NC(=O)CSc2nc3ccccc3n2CC(=O)N2CCC(C)CC2)no1`, the activation was inactive: 3.6%.
For the compound `O=C(CCNC(=O)N1CCn2c1nc1ccccc12)NCc1ccc(Cl)cc1`, the activation is inactive: -4.2%.
With `CC(=O)Nc1ccc(Oc2c([N+](=O)[O-])cc([N+](=O)[O-])cc2[N+](=O)[O-])cc1`, the activation was inactive: -2.4%.
As to `Cc1nc2cc(C(F)(F)F)ccc2n1C1CCN(Cc2nnnn2CCc2ccccc2)CC1`, the activation was inactive: -5.1%.
As to `CN1C(=O)CC(n2c(CO)nc3ccccc32)C1=O` (centres undefined), the activation was inactive: -0.7%.
The same measure for `CCOC(=O)c1ccc(NC(=O)C2CC(=O)Nc3nc4ccccc4n32)cc1` (centres undefined): inactive: -0.2%; for `CCC(C(=O)NC1CCCC1)n1c(SCc2cccc(C)c2)nc2ccncc21` (centres undefined): inactive: -2.3%; for `COc1ccc2c(c1)C1(Nc3ccccc3-c3nc4ccccc4n31)C(=O)N2` (centres undefined): inactive: 2.6%.
The same measure for `CC(=O)Nc1ccc([As](=O)(O)O)c(O)c1`: inactive: 6.5%; for `CC1=NNC(=O)C1CCC(=O)N/N=C/C=C/c1ccccc1` (centres undefined): inactive: -3.3%.
Regarding `O=S(=O)(c1ccc(F)cc1)N1CCn2c(nc3ccccc32)C1`, the activation was inactive: 8.3%.
On to `CSCC[C@H](NC(=O)N1CCn2c1nc1ccccc12)C(=O)NC1CCCCC1`, for which the activation was inactive: -6%.
As to `COCCN1CCn2c(nc3cc(NC(=O)Cn4nc(C)c5ccccc5c4=O)ccc32)C1`, the activation is inactive: 8.1%.
With `COc1ccc(CCNC(=O)[C@H](C)NC(=O)N2CCn3c2nc2ccccc23)cc1OC`, the activation is inactive: -2.1%.
As to `CC(C)[C@H](NC(=O)N1CCn2c1nc1ccccc12)C(=O)NCc1ccc(F)cc1`, the activation is inactive: -2.8%.
For `COc1ccccc1OCC(O)Cn1c(=N)n(CCN2CCCCC2)c2ccccc21` (centres undefined), the activation is inactive: 2%.
Regarding `CC(C)C[C@H](NC(=O)N1CCn2c1nc1ccccc12)C(=O)NCc1ccccc1`, the activation is inactive: 3%.
For `Fc1ccc2c(c1)nnn2C1CCN(Cc2nnnn2CCc2ccccc2)CC1`, the activation is inactive: 3.3%.
For the compound `O=C(Cn1cnc2ccccc21)Nc1ccc(C(=O)O)cc1`, the activation was inactive: -1.5%.
Regarding `O=C(C1COc2ccccc2O1)N1CCn2c(nc3ccccc32)C1` (centres undefined), the activation is inactive: -9%.
`COCCN1CCn2c(nc3cc(NC(C)=O)ccc32)C1`: the activation was inactive: 0.9%.
The same measure for `CCOc1ccc(C2=NCC(CBr)S2)cc1` (centres undefined): inactive: -1.2%; for `COCCNC(=O)Cn1cnc2c1c(=O)n(C)c(=O)n2C`: inactive: 1%; for `O=P1(Nc2nc3ccc(Cl)cc3s2)COc2ccccc2O1` (centres undefined): inactive: 4.2%.
With `CCn1c(=O)c2c(nc3n2CCN3c2ccccc2)n(C)c1=O`, the activation is inactive: -1.7%.
Take `C[C@H](NC(=O)N1CCn2c1nc1ccccc12)C(=O)NCc1ccccc1`: the activation was inactive: 8.2%.
For `CC1CN(C(=O)Cn2cnc3c2c(=O)n(C)c(=O)n3C)CC(C)O1` (centres undefined), the activation was inactive: -0.4%.
Take `Cc1nc2ccccc2n1CC(=O)N1CC(=O)Nc2ccccc21`: the activation was inactive: -2%.
Next, `COc1cccc(CNC(=O)[C@H](CCSC)NC(=O)N2CCn3c2nc2ccccc23)c1`: inactive: -2.3%.
`Cc1ccc2c(c1)C1CN(C)CCC1N2C(=O)COc1ccc(N(C)C(=O)c2ccccc2)cc1` (centres undefined): the activation was inactive: -2.3%.
As for `Cc1ccc(C)c(CSc2nc3ccncc3n2CC(=O)Nc2ccc(C)c(C)c2)c1`, the activation is inactive: 8%.
Next, `N=c1n(CCCOc2ccccc2Cl)c2ccccc2n1CC(N)=O`: inactive: -0.6%; `N#Cc1cccc(NC(=O)Cn2c3[n+](c4ccc(C(F)(F)F)cc42)CCCCC3)c1`: inactive: 2.6%; `CC(C)CCNC(=O)CC1C(=O)N(Cc2ccccc2)C(C)c2nc3ccccc3n21` (centres undefined): inactive: -1.3%.
Take `CC(C)(C)NC(=O)Cn1c(SCC(N)=O)nc2ccccc21`: the activation is inactive: 6.1%.
The same measure for `CCc1cccc(CC)c1N(COC)C(=O)Cn1cnc2ccccc21`: inactive: -0.8%.
`C[C@H](NC(=O)N1CCn2c1nc1ccccc12)C(=O)N1CCCCC1`: the activation is inactive: 3.6%.
As to `CSc1nc2ccccc2n1CC(=O)Nc1ccc(C)c(C)c1`, the activation was inactive: -0.4%.
For `CCc1cccc(CC)c1N(COC)C(=O)Cn1c(CO)nc2ccccc21`, the activation is inactive: -4.1%.
For `COc1ccc(/C=N/NC(=O)Cn2cnc3c2c(=O)n(C)c(=O)n3C)cc1`, the activation is inactive: 1.3%.
For the compound `c1ccc(CN2CCC(Nc3nc(-c4cccnc4)nc4ccccc34)CC2)cc1`, the activation is inactive: -2%.
On to `COC(=O)C1=C(Cn2cnc3ccccc32)NC(=O)NC1c1cc(C)ccc1C` (centres undefined), for which the activation is inactive: -2.8%.
For `CC(C)(C)C(=O)NC(Sc1ccccc1)C(Cl)(Cl)Cl` (centres undefined), the activation is inactive: 6.9%.
Next, `O=C(Cn1c(CO)nc2ccccc21)Nc1ccccc1Cl`: inactive: 3.5%.
Turning to `CCc1nc2ccccc2n1CC(=O)N1CCN(Cc2ccccc2)CC1`, the activation was inactive: -2.9%.
Next, `CSc1nc2ccccc2n1CC(=O)Nc1c(C)n(C)n(-c2ccccc2)c1=O`: inactive: -2%; `CC(/C=C/c1ccccc1)=N/NC(=O)CCC(=O)Nc1ccccc1C`: inactive: 4.4%; `O=C(Cn1c(-c2cncs2)nc2ccccc21)NCCc1ccccc1`: inactive: 4.5%.
In the case of `COc1cccc(C(=O)CSc2nc3ccccc3n2CC(=O)N2CCOCC2)c1`, the activation was inactive: 3.7%.
For the compound `CCOC(=O)c1ccc(NC(=O)Cn2c(-c3nonc3N)nc3ccccc32)cc1`, the activation was inactive: 2.3%.
The same measure for `O=C(Cn1c(CO)nc2ccccc21)NCCc1ccccc1`: inactive: -5.7%.
With `Nc1cccc2c([As](=O)(O)O)cccc12`, the activation is inactive: 2.6%.
As to `Cn1c(=O)c2c(ncn2CC(=O)Nc2cc(Cl)c(Cl)cc2Cl)n(C)c1=O`, the activation is inactive: -3%.
Turning to `CCCCC(=O)Nc1ccc2c(c1)nc1n2CCN(CCOC)C1`, the activation is inactive: 4.2%.
In the case of `Cc1ccc(NCCc2c([N+](=O)[O-])cc([N+](=O)[O-])cc2[N+](=O)[O-])cc1`, the activation was inactive: -4.8%.
For the compound `O=C(Cn1c(C(F)(F)F)nc2ccccc21)Nc1ccccc1N1CCOCC1`, the activation was inactive: 4.5%.
As to `O=C(Nc1nc2ccccc2n1CCN1CCOCC1)c1ccccc1`, the activation is inactive: 1.4%.
With `NNC(=O)Cn1cnc2ccccc21`, the activation was inactive: 0%.
As to `Cc1ccc2c(c1)C1CN(C)CCC1N2C(=O)c1ccccc1NS(=O)(=O)c1cccc(C(F)(F)F)c1` (centres undefined), the activation was inactive: 5.3%.
Next, `Oc1ccc(CC2(N3CCCC3)CCCCC2)cc1`: inactive: 0.7%; `Cn1c(=O)n(CCc2ccccc2)c(=O)c2c1nc1n2CCN1Cc1ccco1`: inactive: -3.4%; `C[C@H](NC(=O)N1CCn2c1nc1ccccc12)C(=O)NCc1ccc(F)cc1`: inactive: -5%.
For the compound `CSCC[C@H](NC(=O)N1CCn2c1nc1ccccc12)C(=O)N1CCCCC1`, the activation was inactive: -1.9%.
On to `CCCOP(=S)(Nc1nc(N)cc(=O)[nH]1)OCCC`, for which the activation is inactive: 4.7%.
The same measure for `O=C(CSc1nc2ccccc2n1CC(=O)N1CCOCC1)N1CCCC1`: inactive: -4.3%; for `CCN(CC)CCCNC(=S)N1CCn2c(nc3ccccc32)C1`: inactive: 13.2%; for `COc1cccc(CNC(=O)[C@H](CC(C)C)NC(=O)N2CCn3c2nc2ccccc23)c1`: inactive: -1.2%.
Consider `COc1ccc(CNC(=O)[C@H](C)NC(=O)N2CCn3c2nc2ccccc23)cc1`, for which the activation was inactive: -1.3%.
As for `CCOP(=O)(Nc1cccc2ccccc12)OCC`, the activation is inactive: -1.3%.
The same measure for `COc1cccc(CNc2nc3ccccc3n2CCN2CCCCC2)c1`: inactive: 6.8%.
Turning to `O=C(Nc1ccccc1)N1CCn2c(nc3ccccc32)C1`, the activation is inactive: -0.3%.
For the compound `O=C(CSc1nc2ccccc2n1CC(=O)N1CCCC1)Nc1ccc2c(c1)OCO2`, the activation is inactive: -8.1%.
Turning to `O=C(Nc1ccc2c(c1)nc1n2CCN(C2CCCCC2)C1)c1ccco1`, the activation was inactive: -1.2%.
Take `O=C(CCCCCNC(=O)N1CCn2c1nc1ccccc12)NCc1ccccc1Cl`: the activation was inactive: 1.3%.
